# Assay results: published antibiotic growth screens (doi:10.1038/s41589-023-01349-8)
# This is one part of the list.
# Test system: A. baumannii ATCC 17978
# Experiment: relative growth (fraction of control); higher = less inhibition
# Conditions: 50 µM
row,Structure (SMILES),relative growth
1,O=C(C[C@@H]1CC[C@H](NC(=O)Nc2ccc3c(c2)OCO3)[C@H](CO)O1)NCCCN1CCOCC1,1.01
2,CN(C)CC(=O)N[C@H]1CC[C@H](CC(=O)NCCN2CCCCC2)O[C@H]1CO,1.05
3,CC(C)[Si](C#C[Si](C(C)C)(C(C)C)C(C)C)(O[C@H](C)c1cn([C@H](CO)Cc2ccccc2)nn1)C(C)C,0.894
4,CCNC(=O)C[C@@H]1C=C[C@@H](NC(=O)C2CC2)[C@H](CO)O1,0.887
5,N#CCCn1c(CC(N)=O)nc2ccccc21,1.06
6,COc1ccccc1CNC(=O)C[C@H]1C[C@@H]2c3cc(NC(=O)C4CCOCC4)ccc3O[C@@H]2[C@@H](CO)O1,1.05
7,C[C@@H]1CN([C@@H](C)CO)C(=O)c2cc(C#Cc3cccnc3)cnc2O[C@H]1CN(C)S(C)(=O)=O,1.08
8,C[C@@H](Sc1nc2ncnc(N)c2[nH]1)C(=O)O,0.921
9,COc1ccc(C(=O)NCC(=O)O)cc1,1.03
10,C[C@@H]1CN([C@@H](C)CO)S(=O)(=O)c2ccc(C#Cc3cccnc3)cc2O[C@H]1CN(C)CC1CCOCC1,0.78
11,O=C(O)CSC(=S)N1CCOCC1,0.963
12,C[C@@H]1CN([C@@H](C)CO)S(=O)(=O)c2ccc(C#Cc3ccc(F)cc3)cc2O[C@H]1CN(C)C(=O)c1ccccn1,0.766
13,O=C(O)[C@H]1CCCN1C(=O)c1cccnc1,0.998
14,CN(C)CCCCNC(=O)[C@H]1C[C@H]2C(=O)N3CCC[C@H]3C(=O)N2[C@H]1c1cccc(OCCO)c1,0.915
15,O=C(C[C@@H]1CC[C@@H]2[C@H](COC[C@H](O)CN2S(=O)(=O)c2ccc(Cl)cc2)O1)N[C@H]1CCN(Cc2ccccc2)C1,0.963
16,O=C([O-])CCC(=O)OC[C@@H](NC(=O)C(Cl)Cl)[C@H](O)c1ccc([N+](=O)[O-])cc1.[Na+],1.01
17,O=C(O)CCCCC(=O)O,1.39
18,COCC(=O)N1C[C@H](C)[C@@H](OC)CN(C)C(=O)c2cc(NC(=O)c3ccc(OC)cc3)ccc2OC[C@@H]1C,1.18
19,Cc1ccc(-c2nc(-c3ccc(Cl)cc3)cs2)cc1F,0.968
20,CCCNC(=O)N[C@H]1C=C[C@H](CC(=O)N2CCN(C)CC2)O[C@@H]1CO,1.15
21,C=CCCCCCCCCCCCc1ccco1,1.12
22,COc1cccc(-c2ccc3c(c2)O[C@@H](CN(C)C(=O)C2CC2)[C@H](C)CN([C@H](C)CO)S3(=O)=O)c1,0.852

row,Structure (SMILES),relative growth
1,O=C(C[C@H]1C=C[C@@H](NC(=O)c2ccc(F)cc2)[C@H](CO)O1)NCc1ccncn1,1.07
2,C[C@@H]1CN([C@H](C)CO)C(=O)c2cc(C#Cc3cccc(F)c3)cnc2O[C@H]1CN(C)C(=O)C1CCOCC1,0.894
3,Cc1ccc(S[C@]2(C(=O)NCC(C)C)CC(=O)N(Cc3cc(C(F)(F)F)cc(C(F)(F)F)c3)[C@@H]2c2ccc(CO)cc2I)cc1,0.895
4,CCN(CC)C(=O)N1CCN(CCC#N)CC1,1.09
5,Nc1ncnc2c1ncn2CCO,0.951
6,COc1ccc2c(c1)/C(=N\O)C(=O)N2,0.964
7,CCCNC(=O)Nc1ccc2c(c1)OC[C@H](C)N(Cc1ccc(-c3ccccn3)cc1)C[C@@H](C)[C@@H](OC)CN(C)C2=O,0.899
8,O=C(CCCCCC(=O)N/N=C/[C@@H](O)[C@@H](O)[C@H](O)[C@H](O)CO)NO,0.939
9,CCCCCN(CCCCC)C(=O)C(CCC(=O)[O-])NC(=O)c1ccc(Cl)c(Cl)c1.[Na+] (stereo unspecified),1.03
10,CO[C@@H]1CN(C)C(=O)c2ccc(NC(=O)Nc3ccc(Cl)cc3)cc2OC[C@H](C)N(C(=O)Nc2c(C)noc2C)C[C@H]1C,1.05
11,CNC(=O)[C@H]1Cc2ccccc2N1C(=O)COC,0.905
12,C[C@H]1CN([C@@H](C)CO)S(=O)(=O)c2ccc(C#CC(C)(C)O)cc2O[C@H]1CN(C)C(=O)CN(C)C,1.02
13,Cc1ccc(NC(=O)CC(C)C)cc1,0.96
14,CN1CCN(C(=O)C[C@@H]2CC[C@H]3[C@@H](COC[C@H](O)CN3Cc3ccc4c(c3)OCO4)O2)CC1,1
15,O=C1c2ccccc2[C@](Cc2ccccc2I)(C(=O)O)[C@H](c2ccc(CO)cc2)N1C1CCCCC1,0.969
16,O=C(C[C@H]1CC[C@H]2[C@@H](COC[C@H](O)CN2S(=O)(=O)c2ccccc2)O1)N1CCOCC1,1.05
17,Nc1c(C(=O)c2ccccc2)no[n+]1[O-],0.969
18,COC(CNC(=O)C(=O)NC[C@H]1OCCN1C(=O)c1ccc2c(c1)OCO2)OC,0.917
19,CSc1nc(=O)cc(O)[nH]1,0.83
20,O=C(C[C@H]1C=C[C@@H](NS(=O)(=O)c2ccc(F)cc2)[C@@H](CO)O1)NCCN1CCCCC1,0.668
21,NS(=O)(=O)c1cc2c(cc1Cl)NC(C(Cl)Cl)NS2(=O)=O (stereo unspecified),1.11
22,C[C@H]1CN([C@@H](C)CO)S(=O)(=O)c2ccc(-c3ccc(C#N)cc3)cc2O[C@@H]1CN(C)C(=O)CN(C)C,1.02

row,Structure (SMILES),relative growth
1,CC(C)=CCC[C@@H](C)CC=O,0.944
2,CC12CCC3c4ccc(O)cc4CCC3C1C[C@H](O)[C@@H]2O (stereo partly specified),0.972
3,C=CCNC1=NS(=O)(=O)c2ccccc21,0.976
4,CO[C@@H]1CN(C)C(=O)c2cc(NS(C)(=O)=O)ccc2OC[C@@H](C)N(C(=O)CN(C)C)C[C@@H]1C,1.11
5,O=C(N[C@@H]1C=C[C@H](CC(=O)N2CCOCC2)O[C@H]1CO)c1ccc2c(c1)OCO2,1.01
6,O=C(O)Cn1nnc(-c2ccccc2)n1,1.06
7,COCCOC(=O)N1C(=O)[C@@]2(c3cc(C#CC4=CCCCC4)ccc31)[C@H](C(=O)NC[C@H](O)c1ccccc1)[C@H]1C(=O)O[C@H](c3ccccc3)[C@H](c3ccccc3)N1[C@@H]2c1ccc(O)cc1,1.03
8,COCC(=O)N1C[C@@H](C)[C@H](OC)CN(C)C(=O)c2cc(NC(=O)c3cc(C)on3)ccc2OC[C@@H]1C,0.964
9,C=C1c2cccc(O)c2C(=O)C2=C(O)[C@]3(O)C(=O)C(C(N)=O)=C(O)[C@@H](N(C)C)[C@@H]3[C@@H](O)[C@H]12.Cl,0.172
10,O=C(O)CNC(=O)C1CCC1,1.07
11,CCOC(=O)N1CCN(C(=O)C2CCN(S(=O)(=O)N(CC)CC)CC2)CC1,1.12
12,O=C(/C=C/c1ccc(O)cc1)c1ccccc1O,0.859
13,COC(=O)C[C@H]1C(C)(C)C(=O)[C@@H]2CC3=C4CC(=O)O[C@@H](c5ccoc5)[C@]4(C)CCC3[C@@]1(C)C2=O (stereo partly specified),1.15
14,Cc1ccccc1-n1ccc(=O)[nH]c1=O,0.715
15,COc1ccccc1S(=O)(=O)N(C)C[C@@H]1Oc2c(NC(=O)Nc3cccc4ccccc34)cccc2C(=O)N([C@@H](C)CO)C[C@H]1C,1.03
16,CCC[C@@H]1C[C@@H](C(=O)N[C@H]([C@H]2O[C@H](SC)[C@H](O)[C@@H](O)[C@H]2O)[C@@H](C)Cl)N(C)C1,0.37
17,CC(C)Cc1nc2ccccc2[nH]1,0.755
18,O=C1N[C@@H](Cc2ccccc2)C(=O)N2[C@@H]1C[C@@H](C(=O)NCc1ccc(F)cc1)[C@H]2c1cccc(OCCO)c1,1.07
19,COc1ccccc1S(=O)(=O)N[C@H]1C=C[C@@H](CC(=O)N2CCN(C)CC2)O[C@H]1CO,1
20,C[C@H](O)C#Cc1ccc2c(c1)O[C@H](CN(C)C(=O)Cc1ccccn1)[C@@H](C)CN([C@H](C)CO)S2(=O)=O,0.882
21,Cc1cc(Oc2ccnc3cc(Cl)ccc23)ccc1Cl,0.988
22,CC1(C)C2CC[C@]3(C)C(C(=O)C=C4[C@@H]5C[C@@](C)(C(=O)[O-])CC[C@]5(C)CC[C@]43C)[C@@]2(C)CC[C@@H]1OC(=O)CCC(=O)[O-].[Na+].[Na+] (stereo partly specified),0.947

row,Structure (SMILES),relative growth
1,OC[C@H]1NC[C@H](O)[C@@H](O)[C@@H]1O,1.01
2,C[C@@H]1CC2C3CCC4=CC(=O)C=C[C@]4(C)[C@@]3(F)[C@@H](O)C[C@]2(C)[C@@]1(O)C(=O)CO (stereo partly specified),1.13
3,C[C@@H]1CN([C@@H](C)CO)S(=O)(=O)c2ccc(-c3ccc(C(=O)N(C)C)cc3)cc2O[C@H]1CN(C)C(=O)C1CCC1,1.03
4,CCc1c(C)[nH]c2c(C#N)cnn2c1=O,1.06
5,CC(C)NC(=O)N[C@@H]1C=C[C@@H](CC(=O)NCCCN(C)C)O[C@@H]1CO,1
6,CCCNC(=O)Cn1c(=O)n(C)c2ccccc21,1.09
7,CC(O)C(=O)[O-].[Na+] (stereo unspecified),0.923
8,N#Cc1ccc(NCCNC(=N)N)nc1,1.01
9,COc1cc(/C=C/c2cc(O)cc(O[C@@H]3O[C@H](CO)[C@@H](O)[C@H](O)[C@H]3O)c2)ccc1O[C@@H]1O[C@H](CO)[C@@H](O)[C@H](O)[C@H]1O,1.07
10,O=S(=O)(N1CCOCC1)N1CCCN(S(=O)(=O)N2CCOCC2)CC1,1.02
11,Cc1ccc(S(=O)(=O)N(C)C[C@H]2Oc3cc(Br)ccc3S(=O)(=O)N([C@H](C)CO)C[C@H]2C)cc1,0.925
12,CCCCCCCCCCCCCCCCCC(=O)O.CC[C@H]1OC(=O)[C@H](C)[C@@H](O[C@H]2C[C@@](C)(OC)[C@@H](O)[C@H](C)O2)[C@H](C)[C@@H](O[C@@H]2O[C@H](C)C[C@H](N(C)C)[C@H]2O)[C@](C)(O)C[C@@H](C)C(=O)[C@H](C)[C@@H](O)[C@]1(C)O,0.171
13,COc1ccc([C@H]2[C@@H](C(N)=O)C2(C#N)C#N)cc1,1.07
14,CCCCN(CCCC)CC(O)c1cc(Cl)cc2c1-c1ccc(Cl)cc1/C2=C\c1ccc(Cl)cc1 (stereo unspecified),1.28
15,COc1ccc(O)cc1,1.19
16,CCO/N=[N+](\[O-])N1CCCC1,0.807
17,CCCCCCCCCCCCCCCCCCCCCCO,0.97
18,O=C(N[C@H]1CC[C@H](CCn2cc(C3(O)CCCC3)nn2)O[C@@H]1CO)C1CCOCC1,1.03
19,O=C(Cn1ccc([N+](=O)[O-])n1)N1CCOCC1,1.17
20,CO[C@@]12[C@@H]3NC3CN1C1=C(C(=O)C(N)=C(C)C1=O)[C@@H]2COC(N)=O (stereo partly specified),0.171
